According to PMC11721541 (Journal of Lipid Research, 2024):
Where two headings read alike, the source gives them in different places.

Key:
HepG2 cells = assay: Lipid analysis (TLC, charring) in HepG2 cells; assay type: cell-based, human; conditions: 10 μM, 18 h
[1] = target: Pah1 PAP (unphosphorylated) (Saccharomyces cerevisiae, UniProt P32567)
Pah1 = Pah1 (Saccharomyces cerevisiae, UniProt P32567); conditions: 6 mM inhibitor preincubation; time course 20 s to 1 h
[2] = tested on: WT S. cerevisiae cells (RS453)
[3] = inhibitor 31.25 M (so in the source)
[4] = inhibitor 62.5 M (so in the source)
[5] = inhibitor 125 M (so in the source)

CN[C@H]1CC[C@@H](c2ccc(Cl)c(Cl)c2)c2ccccc21 [sertraline]
relative amount of phospholipids (HepG2 cells): not significantly affected | reduction of Pah1 PAP activity ([1]; 62 μM of each inhibitor, PA 2.4 mol %): 38% | more effective inhibitor than propranolol based on Ki values ([1]; Pah1): 7 fold | Hill no. n [1, 3]: 3.1 | Vmax [1, 3]: 6.0 mol/min/mg | Hill no. n [1, 4]: 4.0 | Vmax [1, 4]: 3.0 mol/min/mg | Hill no. n [1, 5]: 3.7 | Vmax [1, 5]: 1.3 mol/min/mg | mechanism of inhibition of PAP activity ([1]; purified Pah1): noncompetitive | protection of Pah1 peptides from deuterium exchange (Pah1): failed to see protected peptides | concentration that greatly reduces cell growth ([2]; RPMI-0.2% glucose medium, exponential growth): 10 µM | concentration required for similar reduction of cell growth ([2]; SC-0.2% glucose medium, exponential growth): 245 µM | concentration that abolishes cell growth, less in RPMI-0.2% glucose than in SC-0.2% glucose ([2]; static incubation 2 days): ~30 fold
